# In patent US12201633B2, “Compounds and methods for treatment of visceral pain” (Arena Pharmaceuticals, Inc., priority 2017, dated 2025):
# The chains behind the UniProt entries cited, without tags or fusion partners.
# UniProt P34972, whole entry, looked up: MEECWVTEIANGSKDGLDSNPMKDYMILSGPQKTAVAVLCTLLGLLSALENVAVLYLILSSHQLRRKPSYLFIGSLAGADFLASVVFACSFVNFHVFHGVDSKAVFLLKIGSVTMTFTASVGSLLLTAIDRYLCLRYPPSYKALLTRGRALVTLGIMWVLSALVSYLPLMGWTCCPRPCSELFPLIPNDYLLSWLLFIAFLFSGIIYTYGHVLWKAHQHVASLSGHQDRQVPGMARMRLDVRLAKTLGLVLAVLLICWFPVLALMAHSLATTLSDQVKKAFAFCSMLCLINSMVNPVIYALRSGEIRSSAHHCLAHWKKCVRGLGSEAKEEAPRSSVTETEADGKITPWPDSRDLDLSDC
# Biological target: human CB2 receptor (Homo sapiens, UniProt P34972)
# Test: HTRF assay for direct cAMP measurement, CB2
# Format: cell-based
# Settings: read-out: EC50 hCB2, CHO-K1 cells, Table A-2
smiles,measurement,value
"O=C(NC1(C(F)(F)F)CC1)c1nn(-c2c[n+]([O-])ccn2)c2c1C[C@@H]1C[C@H]21 [Compound 764, (1aS,5aS)-2-(4-Oxy-pyrazin-2-yl)-1a,2,5,5a-tetrahydro-1H-2,3-diaza-cyclopropa[a]pentalene-4-carboxylic acid (1-trifluoromethyl-cyclopropyl)-amide]",EC50,0.5 nM
